Patent US6878716B1, “Compounds specific to adenosine A1 receptor and uses thereof” (OSI Pharmaceuticals, Inc., priority 1998, dated 2005)

Amino acid sequences for entries named in this document (tags omitted).
UniProt P30542, whole entry: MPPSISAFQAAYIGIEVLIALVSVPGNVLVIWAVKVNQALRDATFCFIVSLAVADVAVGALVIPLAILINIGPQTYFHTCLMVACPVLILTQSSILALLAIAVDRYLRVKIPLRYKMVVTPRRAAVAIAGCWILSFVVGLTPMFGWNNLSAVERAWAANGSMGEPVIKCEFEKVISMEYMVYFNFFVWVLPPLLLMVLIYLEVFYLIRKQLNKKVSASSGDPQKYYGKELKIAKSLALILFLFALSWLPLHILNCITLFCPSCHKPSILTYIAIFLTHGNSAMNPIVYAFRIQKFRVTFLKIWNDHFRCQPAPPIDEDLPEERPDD

Target: A1 adenosine receptor (Homo sapiens, UniProt P30542)
Assay: fus1-LacZ β-galactosidase assay in yeast expressing human A1 adenosine receptor
Conditions: NECA concentration 10^−8 M

SMILES: CCNC(=O)[C@H]1O[C@@H](n2cnc3c(N)ncnc32)[C@H](O)[C@@H]1O
- stimulation of β-galactosidase activity: approximately 2 fold
